Reference: US11116771B2, “G protein-coupled receptor (GPCR) modulation by imipridones” (Oncoceutics, Inc., priority 2016, dated 2021)

Assays:
Settings in all cases: 5 nM-5 μM, 72 h, n=3
MOLM14 AML cells = assay: Cell viability, MOLM14 AML cells; type: cell-based
[1] = test system: MHH-ES-1 (Ewing's sarcoma)
MV411 AML cells = assay: Cell viability, MV411 AML cells; type: cell-based

Cc1ccccc1CN1C(=O)C2=C(CCN(Cc3ccccc3)C2)N2CCN=C12
IC50 (MOLM14 AML cells): 3.92 µM | IC50 [1]: 5.65 µM | IC50 (MV411 AML cells): 3.25 µM
